Experimental data taken from patent publication US10342221B2, “Generation of an inducible pericyte-specific CRE mouse model” (University of Southern California, priority 2016, dated 2019).

Tested on: pericytes
Conditions: mouse, in vivo

In the case of CC/C(=C(\c1ccccc1)c1ccc(OCCN(C)C)cc1)c1ccccc1 [TAM, Tamoxifen], the “cell-type specificity of tdTomato expression” value is reported as “specifically in pericytes”.
